Test results from patent US20250205191A1, “R(-)-MDMA COMPOSITIONS AND METHODS OF TREATMENT” (EmpathBio, Inc., priority 2023, published 2025).

By UniProt entry, the sequences of proteins in these tests, tags left out. Residues count along the entry.
UniProt P28335, 33-458: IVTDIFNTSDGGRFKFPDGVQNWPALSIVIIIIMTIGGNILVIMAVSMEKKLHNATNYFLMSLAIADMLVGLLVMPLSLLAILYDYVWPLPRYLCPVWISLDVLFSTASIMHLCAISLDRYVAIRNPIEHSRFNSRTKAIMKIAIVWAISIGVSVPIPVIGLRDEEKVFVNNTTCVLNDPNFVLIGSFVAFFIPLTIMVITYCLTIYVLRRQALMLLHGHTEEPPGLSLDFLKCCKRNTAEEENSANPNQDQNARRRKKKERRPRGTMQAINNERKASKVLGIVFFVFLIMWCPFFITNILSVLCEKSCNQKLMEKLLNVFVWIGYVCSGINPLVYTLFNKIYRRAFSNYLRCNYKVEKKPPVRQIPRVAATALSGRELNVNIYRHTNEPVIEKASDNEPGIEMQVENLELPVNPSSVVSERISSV

How the values were obtained:
[1] = biological target: T1, human 5-HT2C (non-edited) receptor (Homo sapiens, UniProt P28335); assay: 5-HT2C (non-edited) agonism, inositol monophosphate accumulation (HTRF), CHO-K1 recombinant cells; assay type: cell-based; details: CHO-K1, IP accumulation
T1 construct: expressed in transfected cells; host or cells: CHO-K1

[2] = biological target: human 5-HT2C (edited) receptor (Homo sapiens, UniProt P28335); assay: 5-HT2C (edited) agonism, inositol monophosphate accumulation (HTRF), CHO-K1 recombinant cells; assay type: cell-based; details: CHO-K1, IP accumulation

Compound	EC50 [1]	EC50 [2]
CN[C@H](C)Cc1ccc2c(c1)OCO2 [R(−)-MDMA, R(−)-3,4-methylenedioxymethamphetamine]	376 nM	494 nM
CNC(C)Cc1ccc2c(c1)OCO2 (racemic) [Racemic MDMA, 3,4-methylenedioxymethamphetamine, reference compound]	943 nM	881 nM
